This is a sample that favours compounds with a hit; in the whole collection about 1.5% have one here.
eIF4H FP inh = human eIF4H binding inhibitors, primary screen, translation initiation inhibitor project, biochemical, uHTS, fluorescence polarization; Eukaryotic translation initiation factor 4H (Homo sapiens), Q15056; eIF4H fluorescence polarization binding assay; inhibition, % at 35 µM; 290,000 compounds, 0.94% hits;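 further: calls also rest on retests at 20 µM and on dose response follow-up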
DSG3 Ab inh = inhibitors of pemphigus antibody binding to DSG3, primary screen, biochemical, bead-based, flow cytometry, scFv-GFP. DSG3-coupled beads, scFv-anti-DSG3-GFP binding; hits give low values. binding (percent of control), % at 10 µM. 310,000 compounds, 0.48% hits. AID 588358, 2011;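 active means binding more than 3 SD below its plate's average and above zero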;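 further: hits lower antibody fragment binding to DSG3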
PABP polyA inh = PABP poly(A) RNA binding inhibitors, primary screen, biochemical, fluorescence polarization, uHTS. calls only at 35 µM. Polyadenylate-binding protein 1 (Homo sapiens), P11940. 290,000 compounds, 1% hits;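 further: calls also rest on retests at 20 µM and on dose response follow-up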
Yeast UUG start = yeast start codon fidelity modulation | S. cerevisiae UUG-firefly luciferase reporter, luminescence/redox ratio | activity score, % at 18.7 µM | hit rate 0.13% among 350,000 | AID 602363;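 active means replicate mean at a twofold rise or more, about +100% in these data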;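 further: firefly luciferase made from a UUG start codon reports start codon fidelity; reporter light over untreated wells divided by growth signal over untreated wells; some hits fall short of that in this replicate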
PABP1 MLLE inh = inhibitors of PABP1 MLLE–PAM2 peptide binding, primary screen, biochemical, fluorescence polarization, FITC-PAM2, GST-MLLE. Polyadenylate-binding protein 1 (Homo sapiens), P11940. inhibition, % at 20 µM. 360,000 compounds, 0.36% hits. AID 588489, 2011; in the data active means inhibition above about 35%, passing the limit was not always enough
A number is an active result. Unless noted, how the calls were made is not given here.

By UniProt entry, the sequences of proteins in these tests, tags left out.
Polyadenylate-binding protein 1 (Homo sapiens), P11940, UniProt P11940, whole entry, looked up: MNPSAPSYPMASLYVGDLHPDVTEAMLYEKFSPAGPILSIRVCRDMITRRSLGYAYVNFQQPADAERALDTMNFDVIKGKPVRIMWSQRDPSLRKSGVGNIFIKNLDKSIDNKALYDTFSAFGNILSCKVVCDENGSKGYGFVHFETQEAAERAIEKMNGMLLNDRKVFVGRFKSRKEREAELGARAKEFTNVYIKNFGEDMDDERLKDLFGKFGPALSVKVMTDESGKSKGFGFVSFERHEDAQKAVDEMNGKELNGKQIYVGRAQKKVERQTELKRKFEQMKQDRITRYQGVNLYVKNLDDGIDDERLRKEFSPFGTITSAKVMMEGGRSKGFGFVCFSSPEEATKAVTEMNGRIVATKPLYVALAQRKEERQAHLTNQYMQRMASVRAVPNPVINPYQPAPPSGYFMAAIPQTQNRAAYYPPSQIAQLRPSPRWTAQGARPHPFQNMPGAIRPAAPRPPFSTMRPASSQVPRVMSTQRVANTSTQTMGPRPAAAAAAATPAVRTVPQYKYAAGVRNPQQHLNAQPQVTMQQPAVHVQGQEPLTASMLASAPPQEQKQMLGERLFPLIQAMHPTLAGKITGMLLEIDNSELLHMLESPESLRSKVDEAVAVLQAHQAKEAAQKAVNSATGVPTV

Cc1nc(S(=O)(=O)N2CCN(Cc3cccc(OCCO)c3)CC2)cn1C was read as Yeast UUG start inactive.
COc1cc(C(CCN2CCCCC2)c2c(OC)cc(OC)c3c(-c4ccccc4)cc(=O)oc23)cc(OC)c1OC (configuration not stated) was read as eIF4H FP inh inactive, DSG3 Ab inh inactive, PABP polyA inh inactive, Yeast UUG start inactive and PABP1 MLLE inh inactive.
`COc1ccc(C(CC(=O)N2CCCCC2)c2c(OC)cc(OC)c3c(-c4ccccc4)cc(=O)oc23)cc1` (configuration not stated) gave DSG3 Ab inh inactive, Yeast UUG start inactive and PABP1 MLLE inh inactive.
COc1ccc(C(CC(=O)N2CCCC2)c2c(OC)cc(OC)c3c(-c4ccccc4)cc(=O)oc23)cc1 (configuration not stated) was read as eIF4H FP inh 87.4, DSG3 Ab inh inactive, PABP polyA inh inactive, Yeast UUG start inactive and PABP1 MLLE inh inactive.
`COc1cc(C(CC(=O)N2CCCC2)c2c(OC)cc(OC)c3c(-c4ccccc4)cc(=O)oc23)cc(OC)c1OC` (configuration not stated) gave eIF4H FP inh 78.2, DSG3 Ab inh inactive, PABP polyA inh active, Yeast UUG start inactive and PABP1 MLLE inh inactive.
Screening COc1ccc(C(CC(=O)N2CCN(c3ccccc3)CC2)c2c(OC)cc(OC)c3c(-c4ccccc4)cc(=O)oc23)cc1 (configuration not stated) returned eIF4H FP inh inactive and PABP polyA inh inactive.
Screening COc1ccc(C(CC(=O)N2CCOCC2)c2c(OC)cc(OC)c3c(-c4ccccc4)cc(=O)oc23)cc1 (configuration not stated) returned eIF4H FP inh 93.0, DSG3 Ab inh inactive, PABP polyA inh active, Yeast UUG start inactive and PABP1 MLLE inh inactive.
Cc1noc(C)c1NC(=O)Nc1ccc2c(c1)C(=O)N([C@@H](C)CO)C[C@@H](C)[C@@H](CN(C)C(=O)C1CCCCC1)OCCCC[C@@H](C)O2 was read as Yeast UUG start inactive.
Cc1nnc2ccc(-c3ccc(NS(=O)(=O)c4ccccc4)cc3)nn12 was read as DSG3 Ab inh 71.2, Yeast UUG start inactive and PABP1 MLLE inh inactive.
`CCn1c(CSc2nnc3ccccn23)nc2cc(C(=O)O)ccc21` gave eIF4H FP inh 128.9, DSG3 Ab inh 36.3, PABP polyA inh active, Yeast UUG start inactive and PABP1 MLLE inh inactive.
Screening COC(=O)c1[nH]c2ccc(Br)cc2c1NC(=O)CN1CCN(C2CCCCC2)CC1 returned eIF4H FP inh inactive, DSG3 Ab inh inactive, PABP polyA inh active, Yeast UUG start inactive and PABP1 MLLE inh inactive.
CNC(=O)C[C@@H]1CC[C@@H]2[C@@H](COc3ccc(NC(=O)Nc4cccc(C)c4)cc3C(=O)N2C)O1 was read as Yeast UUG start inactive.
CCOc1cc(/C=C2/SC(=S)N(Cc3ccccc3)C2=O)ccc1O was read as eIF4H FP inh inactive, DSG3 Ab inh inactive, PABP polyA inh inactive, Yeast UUG start inactive and PABP1 MLLE inh inactive.
O=C1/C(=C\c2ccc(O)c(O)c2)C(c2ccccc2)=NN1c1ccccc1 was read as eIF4H FP inh inactive, DSG3 Ab inh inactive, PABP polyA inh active, Yeast UUG start inactive and PABP1 MLLE inh inactive.
`CCOc1cc(/C=C2\C(=O)N(c3nc(-c4ccc(Br)cc4)cs3)N=C2c2ccccc2)ccc1O` gave eIF4H FP inh 83.7, DSG3 Ab inh inactive, PABP polyA inh inactive, Yeast UUG start inactive and PABP1 MLLE inh inactive.
For COc1cc(/C=C2\C(=O)N(c3ccc(NC(C)=O)cc3)N=C2c2ccccc2)ccc1O the results were eIF4H FP inh inactive, DSG3 Ab inh inactive, PABP polyA inh inactive, Yeast UUG start inactive and PABP1 MLLE inh inactive.
C/C=C/C(=O)OCC(=O)Nc1ccc(SC(F)F)cc1 was read as eIF4H FP inh active, DSG3 Ab inh inactive, PABP polyA inh active, Yeast UUG start inactive and PABP1 MLLE inh inactive.
Screening O=C(C[C@H]1C=C[C@@H](NS(=O)(=O)c2cccc(F)c2)[C@@H](CO)O1)N1CCCCC1 returned Yeast UUG start inactive.
Screening Cc1ccc(NC(=O)CN2C(=O)S/C(=C\c3ccc(-c4cccc(C(=O)O)c4C)o3)C2=O)cc1C returned eIF4H FP inh 67.5, DSG3 Ab inh inactive, PABP polyA inh inactive and PABP1 MLLE inh inactive.
Screening Cn1cc(/C=C2/SC(=O)N(CC(=O)Nc3ccc4c(c3)OCO4)C2=O)c2ccccc21 returned eIF4H FP inh inactive, DSG3 Ab inh inactive, PABP polyA inh inactive and PABP1 MLLE inh inactive.
`O=C(CN1C(=O)S/C(=C\c2ccc(-c3cc(C(=O)O)ccc3Cl)o2)C1=O)Nc1ccc2c(c1)OCO2` gave eIF4H FP inh 67.7, PABP polyA inh active, Yeast UUG start inactive and PABP1 MLLE inh inactive.
Cc1c(C(=O)O)cccc1-c1ccc(/C=C2\SC(=O)NC2=O)o1 was read as eIF4H FP inh 54.5, DSG3 Ab inh inactive, PABP polyA inh active, Yeast UUG start inactive and PABP1 MLLE inh inactive.
CO[C@@H]1CN(C)C(=O)c2cc(NC(=O)C3CC3)ccc2OC[C@H](C)N(Cc2ccncc2)C[C@H]1C was read as Yeast UUG start inactive.
Screening COC(=O)C[C@H]1CC[C@@H]2[C@@H](COc3ccc(NC(=O)c4ccc(F)cc4)cc3C(=O)N2C)O1 returned Yeast UUG start inactive.
Screening COc1cc(OC)cc(C(=O)OCC(=O)Nc2nnc(-c3ccccc3)o2)c1 returned DSG3 Ab inh inactive, Yeast UUG start inactive and PABP1 MLLE inh inactive.
`O=C(COC(=O)c1cncc(Br)c1)Nc1nnc(-c2ccccc2)o1` gave eIF4H FP inh 70.4, DSG3 Ab inh inactive, PABP polyA inh inactive, Yeast UUG start inactive and PABP1 MLLE inh inactive.
For COc1ccc(OC(=O)CN2C(=O)C3C4CCC(C4)C3C2=O)cc1 (configuration not stated) the results were eIF4H FP inh inactive, DSG3 Ab inh inactive, PABP polyA inh active and PABP1 MLLE inh inactive.
`O=C1N/C(=C/c2cccn2-c2ccc(F)cc2)C(=O)N1Cc1ccccc1F` gave eIF4H FP inh inactive, DSG3 Ab inh inactive, PABP polyA inh inactive and PABP1 MLLE inh inactive.
`O=C(O)c1cccc(-n2cccc2/C=C2/NC(=O)N(Cc3ccccc3F)C2=O)c1` gave eIF4H FP inh 93.9, DSG3 Ab inh inactive, PABP polyA inh active and PABP1 MLLE inh inactive.
`O=C1N/C(=C/c2cccn2-c2ccccc2)C(=O)N1Cc1ccc(F)cc1` gave eIF4H FP inh active, DSG3 Ab inh inactive, PABP polyA inh active, Yeast UUG start inactive and PABP1 MLLE inh inactive.
For CSc1ccc(C2NC(=O)c3c(sc4c3CCN(C)C4)N2)cc1 (configuration not stated) the results were eIF4H FP inh 108.6, DSG3 Ab inh inactive, PABP polyA inh active, Yeast UUG start inactive and PABP1 MLLE inh inactive.

Assay outcomes (PubChem)
